Reference: article PMC10318527, “Utilization of dietary mixed-linkage β-glucans by the Firmicute Blautia producta” (The Journal of Biological Chemistry, 2023)

Tested on: Gentiobiose
Assay: purified protein, by the assay type
Conditions: other: PAHBAH assay, 100 mM HEPES pH 6.5, 37 °C

**Q.** “BpGH3-X62MLG (Blautia producta ATCC 27340 = DSM 2950)” was tested. Which Km did it give?
**A.** 240 ± 30 µM

**Q.** What about the kcat of the same substance?
**A.** 14 ± 0.2 s⁻¹

**Q.** And the kcat/Km?
**A.** 58000 M⁻¹ s⁻¹

**Q.** What does the source list for “BpGH3-AR8MLG (Blautia producta ATCC 27340 = DSM 2950)”?
**A.** Km: 240 ± 40 µM; kcat: 14 ± 0.2 s⁻¹; kcat/Km: 58000 M⁻¹ s⁻¹
